Measurements as given in patent publication US20260078130A1, “NAMPT MODULATORS, PREPARATIONS, AND USES THEREOF” (SIRONAX LTD., priority 2022, published 2026).

Sequences of proteins named here, by UniProt entry; tags and fusion partners are left off.
UniProt P43490, whole entry: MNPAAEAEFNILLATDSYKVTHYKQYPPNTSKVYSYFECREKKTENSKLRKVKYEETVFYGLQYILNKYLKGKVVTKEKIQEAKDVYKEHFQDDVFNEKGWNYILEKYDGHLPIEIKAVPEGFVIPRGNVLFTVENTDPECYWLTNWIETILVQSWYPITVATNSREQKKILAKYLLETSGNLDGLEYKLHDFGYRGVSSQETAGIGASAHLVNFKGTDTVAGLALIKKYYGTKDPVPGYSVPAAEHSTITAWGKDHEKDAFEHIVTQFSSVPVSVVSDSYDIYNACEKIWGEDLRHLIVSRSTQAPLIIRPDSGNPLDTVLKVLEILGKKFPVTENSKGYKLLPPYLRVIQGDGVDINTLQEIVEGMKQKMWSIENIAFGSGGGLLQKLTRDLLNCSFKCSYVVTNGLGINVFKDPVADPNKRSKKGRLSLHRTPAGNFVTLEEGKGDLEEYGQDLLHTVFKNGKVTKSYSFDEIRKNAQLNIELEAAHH

Columns and labels:
[1] = target: human enzyme NAMPT (full length) (Homo sapiens, UniProt P43490); test: NMN fluorescence biochemical assay (stimulation of NMN synthesis by NAMPT); details: for Enzymatic Emax: fold change of maximal activation compared to DMSO; for EC50: read-out: Enzymatic EC50, concentration giving half-maximal activation
[2] = test system: endogenous NAMPT in U2OS cells; test: Cellular NAD+ modulation assay (NAD/NADH-Glo, U2OS cells)
[3] = 24 hours incubation with compound
[4] = read-out: Cellular EC50, 24 hours incubation with compound
[5] = NMN synthesis by purified human NAMPT (100 nM)
[6] = NMN fluorescence assay, purified human NAMPT 100 nM
[7] = 24 hours incubation, cellular NAD+
[8] = read-out: Cellular EC50, 24 hours incubation, cellular NAD+

O=C1c2ccccc2C(C2CC2)N1Cc1ccc2[nH]c(=O)oc2c1 (single isomer, unassigned) [Compound 73/74 (RT = 3.760 min)]
Enzymatic Emax [1]: B (3≥B>2)
Cellular Emax [2, 3]: A (A>1.5)
EC50 [2, 4]: 5 to 50 µM

CC1c2cc(CN3CCOCC3)ccc2C(=O)N1Cc1ccc2[nH]c(=O)oc2c1 (single isomer, unassigned) [Compound 144/145 (Int 10/Int11: RT = 1.728 min as a starting]
Enzymatic Emax [1]: B (3≥B>2)

CC1c2cc(C3CC3)ccc2C(=O)N1Cc1ccc2[nH]c(=O)oc2c1 (single isomer, unassigned) [Compound 126/127 (Int 10/Int 11: RT = 1.728 min as a startin]
Enzymatic Emax [1]: A (A>3)
EC50 [1, 5]: 0.5 to 5 µM
Cellular Emax [2, 3]: A (A>1.5)
EC50 [2, 4]: 0.5 to 5 µM

O=C1NCC2(CC(F)(CN3C(=O)c4ccccc4C3Cc3ncccc3Br)C2)O1 (single isomer, unassigned) [Compound 441/442 (RT = 4.63 min)]
Enzymatic Emax [1]: B (3≥B>2)
EC50 [1, 6]: 0.5 to 5 µM

Cn1ncc(Cl)c1CC1c2ccccc2C(=O)N1Cc1ccc2[nH]nnc2c1 (single isomer, unassigned) [Compound 319/320]
Enzymatic Emax [1]: C (2≥C)

CC(c1ccccn1)C1c2ccccc2C(=O)N1Cc1ccc2[nH]c(=O)oc2c1 (racemic) [Mixture of 152 and 153/mixture of 154 and 155 (RT = 3.68 min]
Enzymatic Emax [1]: B (3≥B>2)
Cellular Emax [2, 3]: A (A>1.5)
EC50 [2, 4]: 5 to 50 µM

CC(c1ccccn1)C1c2ccccc2C(=O)N1Cc1ccc2[nH]c(=O)oc2c1 (racemic) [Mixture of 152 and 153/mixture of 154 and 155 (RT = 3.24 min]
Enzymatic Emax [1]: C (2≥C)

Cn1ncc(Cl)c1CC1c2ccccc2C(=O)N1C[C@H]1C[C@]2(C1)OC(=O)NC2=O (single isomer, unassigned) [Compound 569/644 (RT = 8.031 min)]
Enzymatic Emax [1]: C (2≥C)
EC50 [1, 6]: > 5 µM

O=C1c2ccccc2C(Cc2nn(C3COC3)cc2Cl)N1Cc1ccc2[nH]nnc2c1 (single isomer, unassigned) [Compound 378/379 (RT = 3.572 min)]
Enzymatic Emax [1]: B (3≥B>2)

CC1c2cc(Br)ccc2C(=O)N1Cc1ccc2[nH]c(=O)oc2c1 (single isomer, unassigned) [Compound 138/139 (Int 10/Int11: RT = 1.728 min as a starting]
Enzymatic Emax [1]: B (3≥B>2)
Cellular Emax [2, 3]: A (A>1.5)
EC50 [2, 4]: 0.5 to 5 µM

Cn1ncc(Cl)c1CC1c2ccccc2C(=O)N1C/C=C/c1nn[nH]c1F (single isomer, unassigned) [Compound 570/571 (RT = 7.223 min)]
Enzymatic Emax [1]: A (A>3)
EC50 [1, 6]: < 0.5 µM
Cellular Emax [2, 7]: A (A>1.5)
EC50 [2, 8]: < 0.5 µM

CN1CCCC(CC2c3ccccc3C(=O)N2Cc2ccc3[nH]c(=O)oc3c2)C1=O (racemic) [Mixture of 235 and 236/mixture of 237 and 238 (RT = 3.54 min]
Enzymatic Emax [1]: C (2≥C)

Cc1ccnc(C#N)c1CC1c2ccccc2C(=O)N1C[C@H]1C[C@]2(CNC(=O)O2)C1 (single isomer, unassigned) [Compound 407/408 (RT = 2.628 min)]
Enzymatic Emax [1]: C (2≥C)
EC50 [1, 6]: 0.5 to 5 µM

N#CNC1=NCC2(CC(CN3C(=O)c4ccccc4C3Cc3ncccc3Br)C2)O1 (single isomer, unassigned) [Compound 530/531 (RT = 2.842 min)]
Enzymatic Emax [1]: B (3≥B>2)
EC50 [1, 6]: < 0.5 µM
Cellular Emax [2, 7]: B (1.5≥B>1.2)
EC50 [2, 8]: < 0.5 µM

N#Cc1nccc(Cl)c1CC1c2ccccc2C(=O)N1Cc1ccc2[nH]nnc2c1 (single isomer, unassigned) [Compound 229/230 (RT = 7.184 min)]
Enzymatic Emax [1]: A (A>3)
EC50 [1, 5]: < 0.5 µM
Cellular Emax [2, 3]: B (1.5≥B>1.2)
EC50 [2, 4]: < 0.5 µM

CN1CCCC(CC2c3ccccc3C(=O)N2Cc2ccc3[nH]c(=O)oc3c2)C1=O (racemic) [Mixture of 235 and 236/mixture of 237 and 238 (RT = 3.63 min]
Enzymatic Emax [1]: A (A>3)
EC50 [1, 5]: 0.5 to 5 µM
Cellular Emax [2, 3]: A (A>1.5)
EC50 [2, 4]: 0.5 to 5 µM

O=C1c2ccccc2C(Cc2ncccc2Br)N1Cc1cc2oc(=O)[nH]c2cn1 (stereo not drawn)
Enzymatic Emax [1]: C (2≥C)

O=C1c2ccccc2C(Cc2ccccc2C(F)(F)F)N1Cc1ccc2[nH]c(=O)oc2c1 (single isomer, unassigned) [Compound 135/136 (RT = 2.075 min)]
Enzymatic Emax [1]: B (3≥B>2)
EC50 [1, 5]: 0.5 to 5 µM
Cellular Emax [2, 3]: B (1.5≥B>1.2)
EC50 [2, 4]: 5 to 50 µM

O=C1c2ccccc2C(C2CC2)N1Cc1ccc2[nH]c(=O)oc2c1 (single isomer, unassigned) [Compound 73/74 (RT = 4.563 min)]
Enzymatic Emax [1]: A (A>3)
EC50 [1, 5]: 0.5 to 5 µM
Cellular Emax [2, 3]: A (A>1.5)
EC50 [2, 4]: 0.5 to 5 µM

Cn1nc(Cl)c(Cl)c1CC1c2ccccc2C(=O)N1C[C@H]1C[C@]2(CNC(=O)O2)C1 (single isomer, unassigned) [Compound 533/534 (RT = 1.313 min)]
Enzymatic Emax [1]: C (2≥C)
EC50 [1, 6]: > 5 µM

O=C1c2ccccc2C(Cc2ncccc2C(F)F)N1Cc1ccc2[nH]c(=O)oc2c1 (single isomer, unassigned) [Compound 192/193 (RT = 1.350 min)]
Enzymatic Emax [1]: C (2≥C)
EC50 [1, 5]: 0.5 to 5 µM

Cc1ncnc(C#N)c1CC1c2ccccc2C(=O)N1C[C@H]1C[C@]2(CNC(=O)O2)C1 (single isomer, unassigned) [Compound 545/546 (RT = 6.524 min)]
Enzymatic Emax [1]: C (2≥C)
EC50 [1, 6]: > 5 µM

CC1(CN2C(=O)c3ccccc3C2Cc2ncccc2Br)CC2(CNC(=O)O2)C1 (single isomer, unassigned) [Compound 376/377 (RT = 4.40 min)]
Enzymatic Emax [1]: C (2≥C)
EC50 [1, 6]: 0.5 to 5 µM

O=C1c2ccc(Oc3ccccc3)cc2C(=O)N1Cc1ccc(O)cc1
Enzymatic Emax [1]: B (3≥B>2)
EC50 [1, 5]: 0.5 to 5 µM

Cn1ncc(Cl)c1CC1c2cc(Cl)cc(F)c2C(=O)N1C[C@H]1C[C@]2(CNC(=O)O2)C1 (single isomer, unassigned) [Compound 553/554 (RT = 3.614 min)]
Enzymatic Emax [1]: C (2≥C)

[2H]C1([2H])NC(=O)O[C@]12C[C@@H](CN1C(=O)c3ccccc3C1Cc1c(Cl)cnn1C)C2 (single isomer, unassigned) [Compound 536/537 (RT = 2.013 min)]
Enzymatic Emax [1]: C (2≥C)

Cn1ncc(Cl)c1CC1c2cccc(F)c2C(=O)N1C[C@H]1C[C@]2(CNC(=O)O2)C1 (single isomer, unassigned) [Compound 426/427 (RT = 2.312 min)]
Enzymatic Emax [1]: C (2≥C)

COc1ccc(CN2C(=O)c3ccccc3C2Cc2c(Cl)cnn2C)cc1F (single isomer, unassigned) [Compound 633/634 (RT = 2.036 min)]
Enzymatic Emax [1]: C (2≥C)

Cc1ccnc(C#N)c1CC1c2ccccc2C(=O)N1Cc1ccc2[nH]nnc2c1 (single isomer, unassigned) [Compound 368/369 (RT = 2.235 min)]
Enzymatic Emax [1]: C (2≥C)

N#Cc1cccnc1CC1c2ccccc2C(=O)N1Cc1ccc2[nH]c(=O)oc2c1 (single isomer, unassigned) [Compound 258/259 (RT = 1.809 min)]
Enzymatic Emax [1]: C (2≥C)

O=C1c2ccccc2C(Cc2ncccc2Br)N1Cc1ccc2[nH]c(=O)oc2c1 (single isomer, unassigned) [Compound 206/207 (RT = 1.087 min)]
Enzymatic Emax [1]: B (3≥B>2)

Cn1ncc(Cl)c1CC1c2ccccc2C(=O)N1C/C=C/c1nn[nH]c1F (single isomer, unassigned) [Compound 570/571 (RT = 5.999 min)]
Enzymatic Emax [1]: C (2≥C)

Cn1ncc(Cl)c1CC1c2cc(F)cc(F)c2C(=O)N1C[C@H]1C[C@]2(CNC(=O)O2)C1 (single isomer, unassigned) [Compound 549/550 (RT = 4.624 min)]
Enzymatic Emax [1]: C (2≥C)

O=C1NC[C@]2(C[C@H](CN3C(=O)c4ccccc4C3Cc3ncccc3Br)C2)O1 (single isomer, unassigned) [Compound 345/346 (RT = 1.286 min)]
Enzymatic Emax [1]: C (2≥C)

O=C1NCC2(CCC(CN3C(=O)c4ccccc4C3Cc3ncccc3Br)CC2)O1 (single isomer, unassigned)
Enzymatic Emax [1]: C (2≥C)
EC50 [1, 6]: 0.5 to 5 µM

COc1ccc(CN2C(=O)c3ccccc3C2Cc2c(Cl)cnn2C)cc1 (single isomer, unassigned) [Compound 617/618 (RT = 2.253 min)]
Enzymatic Emax [1]: C (2≥C)
EC50 [1, 6]: > 5 µM

N#Cc1nccc(Cl)c1CC1c2ccccc2C(=O)N1Cc1ccc2[nH]nnc2c1 (single isomer, unassigned) [Compound 229/230 (RT = 8.249 min)]
Enzymatic Emax [1]: A (A>3)
EC50 [1, 5]: 0.5 to 5 µM

Read-outs that look alike come from different tables or passages of the source.
